# Apparent affinities of Ab-95 variants for a coronavirus HR2 peptide

Antigen: PDVDLGDISGINAS, a 14-residue peptide of the SARS-CoV-2 spike HR2 region.

Each scFv is VH, a (GGGGS)3 linker, VL, as in the parent Ab-95, and differs from it in the CDRs of the light chain only.
VH: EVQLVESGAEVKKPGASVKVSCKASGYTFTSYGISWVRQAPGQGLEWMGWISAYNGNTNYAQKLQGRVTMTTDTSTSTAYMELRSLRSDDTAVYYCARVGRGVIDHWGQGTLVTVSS
VL: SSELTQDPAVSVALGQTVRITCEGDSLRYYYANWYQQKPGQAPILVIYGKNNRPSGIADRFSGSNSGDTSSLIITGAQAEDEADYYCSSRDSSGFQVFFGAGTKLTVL

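The starting antibody came from a phage panning campaign against this peptide. In library AAYL52, one, two or three CDR residues were substituted; doubles and triples were drawn at random. The scFvs were displayed on barcoded MATa yeast, the peptide on MATalpha yeast. Mating (16 h, 30 °C) was followed by selection of diploids and sequencing of their barcodes. Each replicate has its own calibration line, from reference interactions of the BCL2 family. There are three technical replicates.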

Positions count from residue 1 of the parent VL; G24P puts P in place of G. Numbers give log10(Kd / nM), so 0 is 1 nM and 3 is 1 µM. Smaller is tighter. The mean shown is taken over the replicates in which the pair was detected. "n.d." means that the variant was in the library but no mating with the target was seen in that replicate; the authors take this as a sign of poor binding, and no number exists. Background: pairings of library AAYL52 with three empty control strains gave a value in 28% of cases (median 3.91, 5th percentile 2.90). Values in that range, when seen in few replicates, are hard to tell from nonspecific mating. The control count says in how many pairings with the empty strains this scFv gave a signal, with their mean in brackets.

| changes | log10 Kd, replicates | mean, log10 nM | empty controls |
|---|---|---|---|
| G24P+Y31A+S92D | 3.22 4.17 n.d. | 3.69 | 3 of 9 (3.94) |
| S89I+S92W | n.d. 3.21 4.44 | 3.82 | 1 of 9 (3.54) |
| Y30V+Y31W+S55Q | 2.60 2.59 1.93 | 2.37 | 7 of 9 (4.58) |
| P54L+Q96R | 2.38 2.54 3.07 | 2.67 | 0 of 9 |
| G49W+K50I+D91S | 3.74 5.25 3.86 | 4.28 | 5 of 9 (4.18) |
| P54C+S88V+V97P | 4.10 n.d. n.d. | 4.10 | 3 of 9 (4.31) |
| E23K+S92I+F95Y | 1.88 1.55 1.55 | 1.66 | 1 of 9 (5.31) |
| K50V | 3.40 3.23 1.72 | 2.79 | 3 of 9 (4.91) |
| Y31D+A32E+G94M | n.d. 4.31 n.d. | 4.31 | 0 of 9 |
| G24H+S88T | 2.75 2.86 3.13 | 2.91 | 7 of 9 (3.96) |
| N33Y+G49E+Q96D | 4.14 3.62 n.d. | 3.88 | 2 of 9 (3.74) |
| N51F+N52G+F95K | 3.79 3.43 3.02 | 3.42 | 6 of 9 (3.97) |
| S26H+R90I | 2.00 2.22 1.70 | 1.98 | 3 of 9 (4.21) |
| L27K+S93N+Q96I | n.d. n.d. n.d. | n.d. | 2 of 9 (3.41) |
| Y30T+N52L+G94R | 1.99 1.69 1.06 | 1.58 | 6 of 9 (3.80) |
| Y29V+Y30K+Q96P | 2.69 3.28 3.39 | 3.12 | 5 of 9 (3.75) |
| Y29C+S55T+D91L | 4.70 3.34 n.d. | 4.02 | 2 of 9 (3.71) |
| S26C+G49W | n.d. n.d. n.d. | n.d. | 2 of 9 (3.66) |
| Y29T+Y30I+F95Y | 1.82 1.71 1.55 | 1.69 | 1 of 9 (3.03) |
| G49N+K50I+V97K | n.d. n.d. n.d. | n.d. | 0 of 9 |
| A32H+N33W+D91Y | n.d. 3.78 n.d. | 3.78 | 6 of 9 (3.29) |
| L27K+R28T+F95G | n.d. n.d. n.d. | n.d. | 2 of 9 (2.93) |
| Y29N+K50Y+S55R | 3.85 3.12 n.d. | 3.48 | 2 of 9 (4.15) |
| N51W+N52Q+R53Q | 3.57 2.88 4.25 | 3.56 | 4 of 9 (3.70) |
| R90E+G94D+F95P | n.d. 3.84 4.63 | 4.23 | 4 of 9 (4.10) |
| E23G+R28K+V97G | 2.27 2.23 1.91 | 2.14 | 5 of 9 (4.24) |
| L27E+F98I | 4.20 4.62 n.d. | 4.41 | 4 of 9 (3.75) |
| S92Y+S93V+F98R | 4.24 n.d. n.d. | 4.24 | 0 of 9 |
| N33R+R53W+S89V | n.d. 3.78 n.d. | 3.78 | 3 of 9 (4.17) |
| L27S+G49F+D91Y | 3.00 4.75 n.d. | 3.87 | 2 of 9 (3.48) |
| G24W+K50Y+S88I | 2.90 3.91 n.d. | 3.41 | 3 of 9 (4.28) |

A selection of 3 entries from above:

changes,"log10 Kd, replicates","mean, log10 nM",empty controls
G24H+S88T,2.75 2.86 3.13,2.91,7 of 9 (3.96)
G49N+K50I+V97K,n.d. n.d. n.d.,n.d.,0 of 9
N33R+R53W+S89V,n.d. 3.78 n.d.,3.78,3 of 9 (4.17)

Data: MIT Lincoln Laboratory AlphaSeq set, Engelhart et al. 2022, doi:10.1038/s41597-022-01779-4, as distributed in FLAb.